This is an account of results in ChEMBL document CHEMBL1149262, “Monoamine transporter binding, locomotor activity, and drug discrimination properties of 3-(4-substituted-phenyl)tropane-2-carboxylic acid methyl ester isomers” (J Med Chem, 2004).

Protein sequences, listed by entry. Tags and fused reporters are not part of them.
UniProt P31645, whole entry: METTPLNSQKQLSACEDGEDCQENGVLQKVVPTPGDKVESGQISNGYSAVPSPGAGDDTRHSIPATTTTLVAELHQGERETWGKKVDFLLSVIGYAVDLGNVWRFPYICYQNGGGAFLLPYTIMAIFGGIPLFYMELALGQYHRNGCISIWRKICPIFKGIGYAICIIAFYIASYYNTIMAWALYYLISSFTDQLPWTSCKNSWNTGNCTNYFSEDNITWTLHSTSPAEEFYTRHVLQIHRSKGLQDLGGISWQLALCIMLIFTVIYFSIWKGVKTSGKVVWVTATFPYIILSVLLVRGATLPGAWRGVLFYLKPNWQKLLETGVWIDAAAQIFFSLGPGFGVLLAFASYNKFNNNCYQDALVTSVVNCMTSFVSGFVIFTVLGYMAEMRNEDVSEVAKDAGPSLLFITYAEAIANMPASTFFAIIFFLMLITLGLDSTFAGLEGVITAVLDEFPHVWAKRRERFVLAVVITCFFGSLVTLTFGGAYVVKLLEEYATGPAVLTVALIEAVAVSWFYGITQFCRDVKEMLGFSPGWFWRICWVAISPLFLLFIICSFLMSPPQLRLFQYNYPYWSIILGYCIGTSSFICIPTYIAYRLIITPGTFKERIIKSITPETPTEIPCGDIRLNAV

The assay has as its target Sodium-dependent serotonin transporter (Homo sapiens, UniProt P31645).

As to `COC(=O)[C@H]1C2CCC(C[C@@H]1c1ccccc1)N2C` (stereo partly drawn), the IC50 is greater than 10 µM.

As to `COC(=O)[C@@H]1C2CCC(C[C@H]1c1ccccc1)N2C` (stereo partly drawn), the IC50 is 5.7 µM and affinity was put at a Ki of 0.518 µM.
